This note sets out measurements from patent US10696677B2 (Research Triangle Institute, priority 2016, dated 2020).

Chains of the proteins cited; added tags and fusions are not shown.
UniProt P34972, whole entry: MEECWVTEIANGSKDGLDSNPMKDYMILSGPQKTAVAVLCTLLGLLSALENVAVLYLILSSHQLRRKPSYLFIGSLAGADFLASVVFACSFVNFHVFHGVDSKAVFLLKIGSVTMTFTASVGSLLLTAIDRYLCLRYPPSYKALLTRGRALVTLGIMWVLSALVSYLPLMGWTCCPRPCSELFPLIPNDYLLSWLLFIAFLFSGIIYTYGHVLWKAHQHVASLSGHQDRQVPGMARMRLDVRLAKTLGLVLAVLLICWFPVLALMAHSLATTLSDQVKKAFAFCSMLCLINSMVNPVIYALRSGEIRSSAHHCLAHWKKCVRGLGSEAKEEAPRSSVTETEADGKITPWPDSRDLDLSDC
UniProt P21554, whole entry: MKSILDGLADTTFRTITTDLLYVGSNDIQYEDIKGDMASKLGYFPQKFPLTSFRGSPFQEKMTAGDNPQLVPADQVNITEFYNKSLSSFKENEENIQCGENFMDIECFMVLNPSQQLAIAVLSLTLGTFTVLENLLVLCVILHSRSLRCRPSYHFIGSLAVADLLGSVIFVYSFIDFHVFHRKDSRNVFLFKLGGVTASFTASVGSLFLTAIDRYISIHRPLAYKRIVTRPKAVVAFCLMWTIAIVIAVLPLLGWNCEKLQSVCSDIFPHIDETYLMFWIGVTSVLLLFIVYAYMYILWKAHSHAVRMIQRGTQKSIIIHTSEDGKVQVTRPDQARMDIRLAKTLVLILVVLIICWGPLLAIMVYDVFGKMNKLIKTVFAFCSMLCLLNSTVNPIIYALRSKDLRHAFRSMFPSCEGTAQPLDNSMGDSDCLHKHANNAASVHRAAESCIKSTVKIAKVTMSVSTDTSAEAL

Where only a bound is given, the exact number is not on record here.

One assay has as its target hCB2 (Homo sapiens, UniProt P34972). As to the kind of experiment: radioligand displacement binding at CB2 ([3H]CP55940, membranes of CHO-K1 cells over-expressing receptor).
Conditions: not given
(Displacement assays read how much labelled ligand stays bound in the presence of the test substance.)
By Ki is commonly meant a dissociation constant, usually derived from enzyme kinetics or from competition with a known ligand. Regarding `Fc1ccc(N2CCN(c3ncnc4c3nc(-c3ccccc3Cl)n4-c3ccc(Cl)cc3)CC2)cc1` [Compound 6, 8-(2-Chlorophenyl)-9-(4-chlorophenyl)-6-[4-(4-fluorophenyl)piperazin-1-yl]-9H-purine], affinity was put at a Ki of 3930 nM. On the same count and under the same terms, the figure for `O=C(Nc1ccc(F)cc1F)NC1CCN(c2ncnc3c2nc(-c2ccccc2Cl)n3-c2ccc(Cl)cc2)CC1` [Compound 22, 3-{1-[8-(2-Chlorophenyl)-9-(4-chlorophenyl)-9H-purin-6-yl]piperidin-4-yl}-1-(2,4-difluorophenyl)urea] is greater than 40000 nM; for `CC(c1ccccc1)N1CCN(c2ncnc3c2nc(-c2ccccc2Cl)n3-c2ccc(Cl)cc2)CC1` (centres unmarked) [Compound 69, 8-(2-Chlorophenyl)-9-(4-chlorophenyl)-6-[4-(1-phenylethyl)piperazin-1-yl]-9H-purine] it is 1280 nM; for `Clc1ccc(-n2c(-c3ccccc3Cl)nc3c(N4CCN(CCc5ccccc5)CC4)ncnc32)cc1` [Compound 70, 8-(2-Chlorophenyl)-9-(4-chlorophenyl)-6-[4-(2-phenylethyl)piperazin-1-yl]-9H-purine] it is 2140 nM.

Staying with this assay, now noted: displacement of [3H]CP55940, CHO-K1 membranes; average of 3-6 measurements.
In the case of `N#Cc1ccc(N2CCN(c3ncnc4c3nc(-c3ccccc3Cl)n4-c3ccc(Cl)cc3)CC2)cc1` [Compound 62, 4-{4-[8-(2-Chlorophenyl)-9-(4-chlorophenyl)-9H-purin-6-yl]piperazin-1-yl}benzonitrile], the “Binding affinity (Ki) at hCB2” value was “inactive”. For `COc1ccc(N2CCN(c3ncnc4c3nc(-c3ccccc3Cl)n4-c3ccc(Cl)cc3)CC2)cc1` [Compound 72, 8-(2-Chlorophenyl)-9-(4-chlorophenyl)-6-[4-(4-methoxyphenyl)piperazin-1-yl]-9H-purine], the “Binding affinity (Ki) at hCB2” value is “inactive”. Take `N#Cc1ccccc1N1CCN(c2ncnc3c2nc(-c2ccccc2Cl)n3-c2ccc(Cl)cc2)CC1` [Compound 74, 2-{4-[8-(2-Chlorophenyl)-9-(4-chlorophenyl)-9H-purin-6-yl]piperazin-1-yl}benzonitrile]: the “Binding affinity (Ki) at hCB2” value was “inactive”.

A further assay concerns the target T1, hCB1 (Homo sapiens, UniProt P21554). As to the kind of experiment: functional fluorescent CB1 activated Gαq16-coupled intracellular calcium mobilization assay in CHO-K1 cells. The format is cell-based. Details: expressed in transfected cells; host or cells: CHO-K1 (membranes).
Conditions: not given
(In general: A change in cytosolic calcium serves as a functional read-out for many receptors and channels.)
In the case of `O=C(Nc1ccccc1F)NC1CCN(c2ncnc3c2nc(-c2ccccc2Cl)n3-c2ccc(OC(F)F)nc2)CC1` [Compound 21, 3-{1-[8-(2-Chlorophenyl)-9-[6-(difluoromethoxy)pyridin-3-yl]-9H-purin-6-yl]piperidin-4-yl}-1-(2-fluorophenyl)urea], the Kb is 240 nM. In the case of `O=C(Nc1ccc(OC(F)F)nc1)NC1CCN(c2ncnc3c2nc(-c2ccccc2Cl)n3-c2ccc(Cl)cc2)CC1` [Compound 25, 3-{1-[8-(2-Chlorophenyl)-9-(4-chlorophenyl)-9H-purin-6-yl]piperidin-4-yl}-1-[6-(difluoromethoxy)pyridin-3-yl]urea], the Kb is 25 nM.

Staying with this assay, now noted: calcium mobilization, CHO-K1 cells; average of 3-6 measurements; read-out: Apparent antagonist dissociation constant (Ke) at hCB1.
Regarding `O=C(NCC1CCCCC1)NC1CCN(c2ncnc3c2nc(-c2ccccc2Cl)n3-c2ccc(OC(F)F)nc2)CC1` [Compound 17, 3-{1-[8-(2-Chlorophenyl)-9-[6-(difluoromethoxy)pyridin-3-yl]-9H-purin-6-yl]piperidin-4-yl}-1-(cyclohexylmethyl)urea], the Kb worked out at 77 nM. On the same count and under the same terms, the figure for `O=C(Nc1ccccc1F)NC1CCN(c2ncnc3c2nc(-c2ccccc2Cl)n3-c2ccc(C(F)(F)F)nc2)CC1` [Compound 20, 3-{1-[8-(2-Chlorophenyl)-9-[6-(trifluoromethyl)pyridin-3-yl]-9H-purin-6-yl]piperidin-4-yl}-1-(2-fluorophenyl)urea] is 250 nM; for `O=C(Nc1ccc(F)c(F)c1)N1CCN(c2ncnc3c2nc(-c2ccccc2Cl)n3-c2ccc(Cl)cc2)CC1` [Compound 42, 4-[8-(2-Chlorophenyl)-9-(4-chlorophenyl)-9H-purin-6-yl]-N-(3,4-difluorophenyl)piperazine-1-carboxamide] it is 5 nM; for `O=C(Nc1ccc(F)cc1)N1CCN(c2ncnc3c2nc(-c2ccccc2Cl)n3-c2ccc(Cl)cc2)CC1` [Compound 43, 4-[8-(2-Chlorophenyl)-9-(4-chlorophenyl)-9H-purin-6-yl]-N-(4-fluorophenyl)piperazine-1-carboxamide] it is 2 nM. With `O=C(Nc1ccc(OC(F)F)nc1)N1CCN(c2ncnc3c2nc(-c2ccccc2Cl)n3-c2ccc(Cl)cc2)CC1` [Compound 44, 4-[8-(2-Chlorophenyl)-9-(4-chlorophenyl)-9H-purin-6-yl]-N-[6-(difluoromethoxy)pyridin-3-yl]piperazine-1-carboxamide], the Kb amounted to 13 nM. With `O=C(Nc1ccccc1F)N1CCN(c2ncnc3c2nc(-c2ccccc2Cl)n3-c2ccc(Cl)cc2)CC1` [Compound 56, 4-[8-(2-Chlorophenyl)-9-(4-chlorophenyl)-9H-purin-6-yl]-N-(2-fluorophenyl)piperazine-1-carboxamide], the Kb was 2 nM. Still for that read-out and setting: the figure for `O=C(Nc1ccc(F)cc1F)N1CCN(c2ncnc3c2nc(-c2ccccc2Cl)n3-c2ccc(Cl)cc2)CC1` [Compound 57, 4-[8-(2-Chlorophenyl)-9-(4-chlorophenyl)-9H-purin-6-yl]-N-(2,4-difluorophenyl)piperazine-1-carboxamide] is 10 nM. For `O=C(C1COc2ccccc2O1)N1CCN(c2ncnc3c2nc(-c2ccccc2Cl)n3-c2ccc(Cl)cc2)CC1` (centres unmarked) [Compound 61, 8-(2-Chlorophenyl)-9-(4-chlorophenyl)-6-[4-(2,3-dihydro-1,4-benzodioxin-2-ylcarbonyl)piperazin-1-yl]-9H-purine], the Kb was determined as 6.1 nM.

`CCS(=O)(=O)N1CCN(c2ncnc3c2nc(-c2ccccc2Cl)n3-c2ccc(Cl)cc2)CC1` [Compound 78, 8-(2-Chlorophenyl)-9-(4-chlorophenyl)-6-[4-(ethylsulfonyl)piperazin-1-yl]-9H-purine]: the Kb was 17 nM. As for `CCCS(=O)(=O)N1CCN(c2ncnc3c2nc(-c2ccccc2Cl)n3-c2ccc(Cl)cc2)CC1` [Compound 79, 8-(2-Chlorophenyl)-9-(4-chlorophenyl)-6-[4-(propylsulfonyl)piperazin-1-yl]-9H-purine], the Kb amounted to 2.4 nM. As for `O=S(=O)(C1CC1)N1CCN(c2ncnc3c2nc(-c2ccccc2Cl)n3-c2ccc(Cl)cc2)CC1` [Compound 84, 8-(2-Chlorophenyl)-9-(4-chlorophenyl)-6-[4-(cyclopropylsulfonyl)piperazin-1-yl]-9H-purine], the Kb turned out to be 17 nM. In the case of `CS(=O)(=O)N1CCN(c2ncnc3c2nc(-c2ccccc2Cl)n3-c2ccc(Cl)cc2)CC1` [Compound 86, 8-(2-Chlorophenyl)-9-(4-chlorophenyl)-6-[4-(methylsulfonyl)piperazin-1-yl]-9H-purine], the Kb was 3.4 nM.

Regarding `O=C(N1CCN(c2ncnc3c2nc(-c2ccccc2Cl)n3-c2ccc(Cl)cc2)CC1)C(F)(F)F` [Compound 87, 8-(2-Chlorophenyl)-9-(4-chlorophenyl)-6-[4-(trifluoroacetyl)piperazin-1-yl]-9H-purine], the Kb was determined as 0.4 nM. The same measure, in the same setting: the figure for `CCCCC(=O)N1CCN(c2ncnc3c2nc(-c2ccccc2Cl)n3-c2ccc(Cl)cc2)CC1` [Compound 103, 8-(2-Chlorophenyl)-9-(4-chlorophenyl)-6-(4-pentanoylpiperazin-1-yl)-9H-purine] is 0.6 nM; for `FC(F)(F)Oc1ccccc1CN1CCN(c2ncnc3c2nc(-c2ccccc2Cl)n3-c2ccc(Cl)cc2)CC1` [Compound 112, 8-(2-Chlorophenyl)-9-(4-chlorophenyl)-6-{4-[2-(trifluoromethoxy)benzyl]piperazin-1-yl}-9H-purine] it is 4 nM; for `N=C(Nc1ccc(F)cc1)N1CCN(c2ncnc3c2nc(-c2ccccc2Cl)n3-c2ccc(Cl)cc2)CC1` [Compound 116, 4-[8-(2-chlorophenyl)-9-(4-chlorophenyl)-9H-purin-6-yl]-N-(4-fluorophenyl)piperazine-1-carboximidamide] it is 510 nM.

In the case of `O=C(NC1CCCC1)N1CCN(c2ncnc3c2nc(-c2ccccc2Cl)n3-c2ccc(Cl)cc2)CC1` [Compound 117, 4-[8-(2-Chlorophenyl)-9-(4-chlorophenyl)-9H-purin-6-yl]-N-cyclopentylpiperazine-1-carboxamide], the Kb came to 54 nM. Consider `O=C(NC1(C(F)(F)F)CCCC1)N1CCN(c2ncnc3c2nc(-c2ccccc2Cl)n3-c2ccc(Cl)cc2)CC1` [Compound 118, 4-[8-(2-Chlorophenyl)-9-(4-chlorophenyl)-9H-purin-6-yl]-N-[1-(trifluoromethyl)cyclopentyl]piperazine-1-carboxamide], for which the Kb worked out at 17 nM.

For the compound `O=C(NC1CCCCC1)N1CCN(c2ncnc3c2nc(-c2ccccc2Cl)n3-c2ccc(Cl)cc2)CC1` [Compound 119, 4-[8-(2-chlorophenyl)-9-(4-chlorophenyl)-9H-purin-6-yl]-N-cyclohexylpiperazine-1-carboxamide], the Kb was 41 nM. For `O=C(NCC1CCCCC1)N1CCN(c2ncnc3c2nc(-c2ccccc2Cl)n3-c2ccc(Cl)cc2)CC1` [Compound 120, 4-[8-(2-chlorophenyl)-9-(4-chlorophenyl)-9H-purin-6-yl]-N-(cyclohexylmethyl)piperazine-1-carboxamide], the Kb was 35 nM. For `O=C(Nc1ccccc1)N1CCN(c2ncnc3c2nc(-c2ccccc2Cl)n3-c2ccc(Cl)cc2)CC1` [Compound 121, 4-[8-(2-chlorophenyl)-9-(4-chlorophenyl)-9H-purin-6-yl]-N-phenylpiperazine-1-carboxamide], the Kb amounted to 3 nM. Take `O=C(Nc1ccccn1)N1CCN(c2ncnc3c2nc(-c2ccccc2Cl)n3-c2ccc(Cl)cc2)CC1` [Compound 122, 4-[8-(2-Chlorophenyl)-9-(4-chlorophenyl)-9H-purin-6-yl]-N-(pyridin-2-yl)piperazine-1-carboxamide]: the Kb worked out at 8 nM.

For another assay, the target named is T1, hCB1. The assay can be described thus: radioligand displacement binding at CB1 (membranes of CHO-K1 cells over-expressing receptor).
Conditions: not given
`N=C(Nc1ccc(F)cc1)N1CCN(c2ncnc3c2nc(-c2ccccc2Cl)n3-c2ccc(Cl)cc2)CC1` [Compound 116, 4-[8-(2-chlorophenyl)-9-(4-chlorophenyl)-9H-purin-6-yl]-N-(4-fluorophenyl)piperazine-1-carboximidamide] returned an inhibitory constant (Ki) of 470 nM.

Staying with this assay, now noted: CB1 versus CB2.
Consider `FC(F)(F)Oc1ccccc1CN1CCN(c2ncnc3c2nc(-c2ccccc2Cl)n3-c2ccc(Cl)cc2)CC1` [Compound 112, 8-(2-Chlorophenyl)-9-(4-chlorophenyl)-6-{4-[2-(trifluoromethoxy)benzyl]piperazin-1-yl}-9H-purine], for which the “CB2 Ki/CB1 Ki selectivity ratio” value was 38000.

Still in this assay, the particulars now being: read-out: Binding affinity (Ki) at hCB1; radioligand displacement, CHO-K1 membranes; average of 3-6 measurements.
For `O=C(Nc1ccc(F)c(F)c1)N1CCN(c2ncnc3c2nc(-c2ccccc2Cl)n3-c2ccc(Cl)cc2)CC1` [Compound 42, 4-[8-(2-Chlorophenyl)-9-(4-chlorophenyl)-9H-purin-6-yl]-N-(3,4-difluorophenyl)piperazine-1-carboxamide], the Ki came to 5 nM.

In the case of `FC(F)(F)Oc1ccccc1CN1CCN(c2ncnc3c2nc(-c2ccccc2Cl)n3-c2ccc(Cl)cc2)CC1` [Compound 112, 8-(2-Chlorophenyl)-9-(4-chlorophenyl)-6-{4-[2-(trifluoromethoxy)benzyl]piperazin-1-yl}-9H-purine], the Ki is 2 nM.
